Reference: US12509453B2, “BRM/BRG1 inhibitors and uses thereof” (Foghorn Therapeutics Inc., priority 2019, dated 2025)

Amino acid sequences for entries named in this document (tags omitted).
UniProt P51532, whole entry: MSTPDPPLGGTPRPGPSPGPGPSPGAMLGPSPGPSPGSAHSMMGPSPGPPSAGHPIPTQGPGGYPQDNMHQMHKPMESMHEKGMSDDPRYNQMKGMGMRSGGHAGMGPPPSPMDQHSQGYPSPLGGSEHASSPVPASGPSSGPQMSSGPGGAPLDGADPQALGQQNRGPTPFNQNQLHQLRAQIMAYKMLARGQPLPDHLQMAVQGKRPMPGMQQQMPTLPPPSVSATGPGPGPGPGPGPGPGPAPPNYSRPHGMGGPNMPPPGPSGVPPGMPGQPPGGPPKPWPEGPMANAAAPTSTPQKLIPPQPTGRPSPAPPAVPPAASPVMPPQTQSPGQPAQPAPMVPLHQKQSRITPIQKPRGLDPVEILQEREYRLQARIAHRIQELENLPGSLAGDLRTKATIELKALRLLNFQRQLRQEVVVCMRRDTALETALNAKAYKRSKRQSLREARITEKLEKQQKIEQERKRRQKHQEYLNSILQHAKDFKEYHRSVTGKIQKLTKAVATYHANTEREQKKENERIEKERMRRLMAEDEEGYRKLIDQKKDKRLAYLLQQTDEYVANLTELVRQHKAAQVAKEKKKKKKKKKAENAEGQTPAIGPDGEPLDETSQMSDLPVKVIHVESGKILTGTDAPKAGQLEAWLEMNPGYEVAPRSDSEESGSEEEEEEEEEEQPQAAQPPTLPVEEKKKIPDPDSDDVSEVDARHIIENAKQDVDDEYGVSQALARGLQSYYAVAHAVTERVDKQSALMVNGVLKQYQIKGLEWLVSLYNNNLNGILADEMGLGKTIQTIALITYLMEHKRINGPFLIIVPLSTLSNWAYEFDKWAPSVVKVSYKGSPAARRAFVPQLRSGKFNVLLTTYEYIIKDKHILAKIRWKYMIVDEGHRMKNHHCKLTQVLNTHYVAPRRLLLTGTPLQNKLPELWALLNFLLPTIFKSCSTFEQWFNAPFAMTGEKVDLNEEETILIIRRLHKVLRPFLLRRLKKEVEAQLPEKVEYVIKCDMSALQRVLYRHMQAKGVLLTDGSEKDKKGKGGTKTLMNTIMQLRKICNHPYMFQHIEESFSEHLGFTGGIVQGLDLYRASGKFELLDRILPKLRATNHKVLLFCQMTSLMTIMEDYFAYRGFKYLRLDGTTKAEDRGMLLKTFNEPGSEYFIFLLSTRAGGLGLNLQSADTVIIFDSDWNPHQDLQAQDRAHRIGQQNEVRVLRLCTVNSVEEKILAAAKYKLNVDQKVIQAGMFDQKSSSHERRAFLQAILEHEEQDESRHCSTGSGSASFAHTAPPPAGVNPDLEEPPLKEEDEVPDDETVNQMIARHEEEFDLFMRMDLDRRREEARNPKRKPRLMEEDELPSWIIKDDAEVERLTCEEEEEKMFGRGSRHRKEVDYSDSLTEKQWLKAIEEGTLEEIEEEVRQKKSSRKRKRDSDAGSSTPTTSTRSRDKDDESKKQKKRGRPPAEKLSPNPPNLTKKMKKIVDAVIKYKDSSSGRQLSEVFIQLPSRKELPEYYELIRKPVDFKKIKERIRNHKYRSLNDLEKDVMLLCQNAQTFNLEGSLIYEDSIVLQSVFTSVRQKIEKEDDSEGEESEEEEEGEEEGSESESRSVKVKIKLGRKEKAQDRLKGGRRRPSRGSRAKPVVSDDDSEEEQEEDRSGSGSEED

Tests used:
BRG-1 = target: T1, BRG-1 (Homo sapiens, UniProt P51532); assay: ATPase catalytic activity assay (ADP-Glo), BRG-1; type: biochemical; conditions: read-out: BRG1 Max % Inhibition
T1 construct: made in house; host or cells: High Five insect cells
Method: The ATPase catalytic activity of BRM or BRG-1 was measured by the in vitro biochemical assay using ADP-Glo™ (Promega, V9102). The ADP-Glo™ kinase assay is performed in two steps once the reaction is complete. The first step is to deplete any unconsumed ATP in the reaction. The second step is to convert the reaction product ADP to ATP, which will be utilized by the luciferase to generate luminesce and be detected by a luminescence reader, such as Envision.
The assay reaction mixture (10 μL) contains 30 nM of BRM or BRG-1, 20 nM salmon sperm DNA (from Invitrogen, UltraPure™ Salmon Sperm DNA Solution, cat #15632011), and 400 μM of ATP in the ATPase assay buffer, which comprises of 20 mM Tris, pH 8, 20 mM MgCl2, 50 mM NaCl, 0.1% Tween-20, and 1 mM fresh DTT (Pierce™ DTT (Dithiothreitol), cat #20290). The reaction is initiated by the addition of the 2.5 μL ATPase solution to 2.5 μL ATP/DNA solution on low volume white Proxiplate-384 plus plate (PerkinElmer,cat #6008280) and incubates at room temperature for 1 hour. […] Finally, luminescence measurement is collected with a plate-reading luminometer, such as Envision.
The ADP-Glo™ kinase assay is performed in two steps once the reaction is complete. […] The second step is to convert the reaction product ADP to ATP, which will be utilized by the luciferase to generate luminesce and be detected by a luminescence reader, such as Envision. […]

[1] = system: Uveal melanoma cell lines, 92-1 or MP41; assay: Comparison of BRG1/BRM inhibitor to clinical PKC and MEK inhibitors in uveal melanoma cell lines (Cell-titer glo, 3 days); type: cell-based; conditions: 0 to 10 micromolar
Method: Procedure: Uveal melanoma cell lines, 92-1 or MP41, were plated in 96 well plates in the presence of growth media (See Table 7). […] Cells were incubated at 37 degrees Celsius for 3 days. After three days of treatment, cell growth was measured with Cell-titer glow (Promega), and luminescence was read on an Envision plate reader (Perkin Elmer).

SMILES | Emax (BRG-1) | Onset of inhibition relative to clinical PKC and MEK inhibitors [1] | Growth inhibition of uveal melanoma cells relative to clinical PKC (LXS196) and MEK (Selumetinib) inhibitors, FIG. 2 ([1]; 3 days)
CC(C)S(=O)(=O)n1cc(C(=O)NCC(=O)Nc2nc(-c3cccc(-c4ccncc4)c3)cs2)c2ccccc21 [Compound 4, 1-(isopropylsulfonyl)-N-(2-oxo-2-((4-(3-(pyridin-4-yl)phenyl)thiazol-2-yl)amino)ethyl)-1H-indole-3-carboxamide] | < 30% |  | 
CSCC[C@H](NC(=O)c1ccc(N)cc1)C(=O)Nc1nc(-c2cccc(-c3ccncc3)c2)cs1 [Compound A] |  | faster onset of inhibition | comparable growth inhibition
